Measurements: ChEMBL document CHEMBL1140447, “Synthesis and antimuscarinic properties of quinuclidin-3-yl 1,2,3,4-tetrahydroisoquinoline-2-carboxylate derivatives as novel muscarinic receptor antagonists” (J Med Chem, 2005)
Values joined by “and” are separate entries in the source; they are usually repeats but may differ in a detail not shown here. Identical values can stand only once.

The chains behind the UniProt entries cited, without tags or fusion partners. Where a name states a change or a piece, a line headed by the entry shows the natural chain unless it says otherwise.
UniProt P08482: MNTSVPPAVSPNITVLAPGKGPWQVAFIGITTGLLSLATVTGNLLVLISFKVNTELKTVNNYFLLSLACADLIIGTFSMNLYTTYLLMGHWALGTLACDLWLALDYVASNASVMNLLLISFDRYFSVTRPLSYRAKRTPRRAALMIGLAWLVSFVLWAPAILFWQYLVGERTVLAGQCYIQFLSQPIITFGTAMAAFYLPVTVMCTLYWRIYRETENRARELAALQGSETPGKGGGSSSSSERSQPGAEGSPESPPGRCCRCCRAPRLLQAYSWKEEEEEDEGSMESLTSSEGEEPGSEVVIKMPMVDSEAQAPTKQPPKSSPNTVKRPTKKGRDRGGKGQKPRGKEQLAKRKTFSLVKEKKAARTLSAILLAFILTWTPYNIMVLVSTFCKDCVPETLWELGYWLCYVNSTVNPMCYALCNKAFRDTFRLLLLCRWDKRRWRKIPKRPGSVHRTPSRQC
UniProt P08483, whole entry: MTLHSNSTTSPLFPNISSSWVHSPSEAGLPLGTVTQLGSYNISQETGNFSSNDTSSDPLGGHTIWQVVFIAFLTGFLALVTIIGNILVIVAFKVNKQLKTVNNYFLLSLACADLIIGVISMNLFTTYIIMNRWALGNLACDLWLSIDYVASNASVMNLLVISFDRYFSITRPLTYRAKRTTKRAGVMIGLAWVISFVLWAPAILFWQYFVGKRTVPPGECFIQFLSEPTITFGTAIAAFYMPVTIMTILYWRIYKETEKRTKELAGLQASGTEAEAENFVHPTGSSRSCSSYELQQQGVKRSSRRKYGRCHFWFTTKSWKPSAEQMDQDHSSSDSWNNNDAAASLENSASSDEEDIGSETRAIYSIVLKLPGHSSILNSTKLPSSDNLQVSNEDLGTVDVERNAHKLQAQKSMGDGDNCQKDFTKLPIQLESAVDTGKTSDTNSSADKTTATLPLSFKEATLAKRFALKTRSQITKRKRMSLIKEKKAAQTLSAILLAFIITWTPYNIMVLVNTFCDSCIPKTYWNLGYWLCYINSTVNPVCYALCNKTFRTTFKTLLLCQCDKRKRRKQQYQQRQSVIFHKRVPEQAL
UniProt P10980, whole entry, looked up: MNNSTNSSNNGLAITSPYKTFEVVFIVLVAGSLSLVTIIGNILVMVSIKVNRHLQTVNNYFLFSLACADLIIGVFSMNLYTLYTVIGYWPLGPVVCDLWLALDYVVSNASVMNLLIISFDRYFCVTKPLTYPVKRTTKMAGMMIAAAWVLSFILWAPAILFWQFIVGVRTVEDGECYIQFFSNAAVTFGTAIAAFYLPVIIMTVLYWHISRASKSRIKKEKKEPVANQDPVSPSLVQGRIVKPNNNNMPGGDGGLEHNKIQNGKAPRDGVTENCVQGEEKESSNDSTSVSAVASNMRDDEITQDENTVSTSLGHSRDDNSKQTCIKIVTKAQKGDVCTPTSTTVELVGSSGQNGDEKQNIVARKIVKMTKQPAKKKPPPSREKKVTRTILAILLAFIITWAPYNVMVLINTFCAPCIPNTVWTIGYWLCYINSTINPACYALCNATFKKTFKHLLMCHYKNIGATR

Columns and labels:
[1] = target: Muscarinic acetylcholine receptor M1 (Rattus norvegicus, UniProt P08482); assay: Binding affinity for rat cortex muscarinic acetylcholine receptor M1 using [3H]pirenzepine
[2] = target: Muscarinic acetylcholine receptor M3 (Rattus norvegicus, UniProt P08483); assay: Binding affinity for rat salivary gland muscarinic acetylcholine receptor M3 using [3H]N-methylscopolamine
[3] = species on record: Rattus norvegicus; assay: Selectivity index calculated as ID50/ED30
[4] = target: Muscarinic receptor M2 and M3 (Rattus norvegicus) (UniProt P08483+P10980); assay: Selectivity index as binding affinity for M2 and M3 receptors; type: protein assay

Structure (SMILES)	Ki [1]	Ki [2]	Selectivity index [3]	Selectivity index [4]
O=C(O[C@H]1CN2CCC1CC2)N1Cc2ccccc2C1c1ccccc1 (stereo partly specified)	8.4 nM	28 nM		
O=C(O[C@@H]1CN2CCC1CC2)N1CCc2ccccc2[C@@H]1c1ccccc1	230 nM			
O=C(O[C@H]1CN2CCC1CC2)N1CCc2ccccc2C1c1ccsc1 (single isomer, unassigned; 12b)	8.3 nM	21 nM	5.4	
O=C(O[C@@H]1CN2CCC1CC2)N1CCc2ccccc2[C@H]1c1ccccc1	440 nM			
O=C(O[C@H]1CN2CCC1CC2)N1CCc2ccccc2C1c1cccs1 (stereo partly specified)	1.8 nM and 2.4 nM	3.6 nM and 18 nM		
O=C(O[C@H]1CN2CCC1CC2)N1C[C@@H](O)c2ccccc2[C@@H]1c1ccccc1	41 nM	35 nM		24
O=C(O[C@H]1CN2CCC1CC2)N1CCc2ccccc2C1Cc1ccccc1 (stereo partly specified)	3.9 nM and 15 nM	25 nM and 160 nM		3 and > 6.3
O=C(O[C@H]1CN2CCC1CC2)N1CC(O)c2ccccc2C1c1ccccc1 (stereo partly specified)				4.1
O=C(O[C@H]1CN2CCC1CC2)N1CCc2ccccc2C1c1ccsc1 (single isomer, unassigned; 12a)	0.95 nM	3.5 nM	6.9	
O=C(O[C@H]1CN2CCC1CC2)N1CCc2ccccc2[C@@H]1c1ccccc1 [SOLIFENACIN]	10 nM			
O=C(O[C@H]1CN2CCC1CC2)N1CCc2ccccc2C1C1CCCCC1 (stereo partly specified)	6.6 nM and 12 nM	6.7 nM and 63 nM		
O=C(NC(c1ccccc1)c1ccccc1)OC1CN2CCC1CC2 (stereo unspecified)	1.5 nM	2 nM		
O=C(O[C@H]1CN2CCC1CC2)N1C[C@H](O)c2ccccc2[C@H]1c1ccccc1	11 nM	150 nM		23
O=C(O[C@H]1CN2CCC1CC2)N1Cc2ccccc2C(c2ccccc2)C1 (stereo partly specified)	52 nM	> 1000 nM		
O=C(O[C@H]1CN2CCC1CC2)N1CCc2ccccc2[C@H]1c1ccccc1	0.32 nM			
O=C(O[C@H]1CN2CCC1CC2)N1CCc2ccccc2C1c1ccccc1 (stereo partly specified)	1.4 nM			
